Assay results published in ChEMBL document CHEMBL1145212, “Fluorinated diaryl sulfides as serotonin transporter ligands: synthesis, structure-activity relationship study, and in vivo evaluation of fluorine-18-labeled compounds as PET imaging agents” (J Med Chem, 2005).

Sequences of proteins named here, by UniProt entry; tags and fusion partners are left off.
UniProt P31645, whole entry: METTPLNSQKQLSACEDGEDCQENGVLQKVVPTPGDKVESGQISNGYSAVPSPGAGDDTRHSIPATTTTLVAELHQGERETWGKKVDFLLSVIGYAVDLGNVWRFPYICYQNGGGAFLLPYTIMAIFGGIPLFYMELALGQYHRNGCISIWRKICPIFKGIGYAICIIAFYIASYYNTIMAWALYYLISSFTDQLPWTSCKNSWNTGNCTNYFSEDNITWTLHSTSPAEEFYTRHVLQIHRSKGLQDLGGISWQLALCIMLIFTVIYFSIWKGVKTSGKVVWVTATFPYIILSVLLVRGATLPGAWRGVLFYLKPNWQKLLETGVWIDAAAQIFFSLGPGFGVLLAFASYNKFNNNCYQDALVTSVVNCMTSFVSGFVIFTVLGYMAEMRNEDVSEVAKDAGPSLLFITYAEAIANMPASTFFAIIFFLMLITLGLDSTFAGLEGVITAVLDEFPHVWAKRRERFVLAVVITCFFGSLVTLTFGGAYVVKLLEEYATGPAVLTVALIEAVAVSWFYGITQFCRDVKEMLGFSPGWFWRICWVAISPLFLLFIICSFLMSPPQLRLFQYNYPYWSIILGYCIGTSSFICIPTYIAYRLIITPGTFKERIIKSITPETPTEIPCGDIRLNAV

Biological target: Sodium-dependent serotonin transporter (Homo sapiens, UniProt P31645)
Assay: In vitro displacement of [3H]paroxetine from human serotonin transporter expressed in HEK293 cells
Type: cell-based
Details: tested as the 18F-labelled form

Ki: 1.46 nM
SMILES: CN(C)Cc1ccccc1Sc1ccc(F)cc1N
